The values that follow come from patent publication US10259810B2, “N-sulfonylated pyrazolo[3,4-b]pyridin-6-carboxamides and method of use” (AbbVie S.à.r.l., priority 2015, dated 2019).

Protein sequences, listed by entry. Tags and fused reporters are not part of them. Lines headed by an entry give the natural chain unless they say otherwise; changes in a name come on top. Chains listed by the source or under a name are the forms on record and can include a tag or linker.
UniProt P13569, with tags, fused parts or gaps DEL508-508: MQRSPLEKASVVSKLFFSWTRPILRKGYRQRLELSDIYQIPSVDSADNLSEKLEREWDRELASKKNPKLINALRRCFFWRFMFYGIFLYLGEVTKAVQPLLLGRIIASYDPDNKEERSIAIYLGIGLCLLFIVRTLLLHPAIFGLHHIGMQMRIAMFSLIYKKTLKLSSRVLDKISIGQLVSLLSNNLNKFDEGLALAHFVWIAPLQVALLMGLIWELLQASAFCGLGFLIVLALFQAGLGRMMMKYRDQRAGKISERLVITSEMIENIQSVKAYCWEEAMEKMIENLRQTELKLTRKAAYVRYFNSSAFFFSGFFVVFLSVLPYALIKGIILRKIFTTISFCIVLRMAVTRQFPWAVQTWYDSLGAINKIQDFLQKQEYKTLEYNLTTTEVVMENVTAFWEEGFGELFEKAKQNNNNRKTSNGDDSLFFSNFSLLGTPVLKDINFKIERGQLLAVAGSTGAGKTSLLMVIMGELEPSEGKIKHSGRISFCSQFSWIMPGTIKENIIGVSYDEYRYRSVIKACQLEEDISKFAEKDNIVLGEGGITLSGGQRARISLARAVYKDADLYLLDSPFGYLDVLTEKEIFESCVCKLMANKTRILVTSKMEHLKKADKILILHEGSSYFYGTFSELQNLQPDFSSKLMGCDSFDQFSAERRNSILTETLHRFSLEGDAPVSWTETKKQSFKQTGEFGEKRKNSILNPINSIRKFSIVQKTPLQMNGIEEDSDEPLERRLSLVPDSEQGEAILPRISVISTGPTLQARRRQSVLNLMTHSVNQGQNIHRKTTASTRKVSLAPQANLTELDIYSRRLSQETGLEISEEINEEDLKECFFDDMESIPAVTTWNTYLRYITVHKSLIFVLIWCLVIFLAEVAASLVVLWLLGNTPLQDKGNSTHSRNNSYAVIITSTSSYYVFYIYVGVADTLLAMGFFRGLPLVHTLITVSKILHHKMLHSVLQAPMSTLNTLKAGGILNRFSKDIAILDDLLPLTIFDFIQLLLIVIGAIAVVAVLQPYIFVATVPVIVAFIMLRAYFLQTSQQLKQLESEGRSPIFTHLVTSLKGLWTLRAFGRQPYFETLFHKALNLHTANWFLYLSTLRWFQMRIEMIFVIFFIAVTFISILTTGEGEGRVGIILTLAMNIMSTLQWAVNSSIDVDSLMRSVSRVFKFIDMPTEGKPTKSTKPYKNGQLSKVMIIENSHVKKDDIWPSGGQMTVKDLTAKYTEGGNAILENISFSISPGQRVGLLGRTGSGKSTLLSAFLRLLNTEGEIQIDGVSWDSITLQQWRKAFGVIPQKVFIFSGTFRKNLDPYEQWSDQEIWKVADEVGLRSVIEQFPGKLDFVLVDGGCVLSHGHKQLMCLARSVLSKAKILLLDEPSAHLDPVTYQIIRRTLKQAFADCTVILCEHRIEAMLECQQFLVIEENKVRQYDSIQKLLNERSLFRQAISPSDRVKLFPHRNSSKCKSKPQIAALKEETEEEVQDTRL

In general, EC50 refers to the midpoint of the concentration-response curve. As usually defined, the pEC50 is −log10 of the EC50, conventionally taken in molar units.

What all share (assay type): cell-based
Experiment [1] concerns the target T1, CFTR ΔF508 (Homo sapiens, UniProt P13569, DEL508-508).
T1 construct: bronchial epithelial cells isolated from CF patients homozygous for the CFTR ΔF508 mutation; McGill University; Asterand; University of North Carolina hAEC-CF; host or cells: primary human bronchial epithelial cells from CF patients homozygous for ΔF508, differentiated at air-liquid interface
As to the kind of experiment: Chronic TECC assay, primary bronchial epithelial cells of CF patients homozygous for CFTR ΔF508 (corrector, co-corrector and potentiator). As to the method:
Primary Bronchial Epithelial Cells Protocol
The TECC (Tranepithelial Clamp Circuit, EP-design) assay measures the functionality of the cystic fibrosis Transmembrane Conductance regulator (CFTR) by measuring the short circuit current (Isc) generated over the basolateral and apical membrane of lung epithelial cells. In TECC the transepithelial potential PD and transepithelial resistance (Rt) are measured in an open circuit and transformed to Ieq using Ohm's law. 24 Wells can be measured simultaneously allowing a higher throughput compared to Ussing chambers.
For this purpose, bronchial epithelial cells isolated from CF patients homozygous for the CFTR ΔF508 mutation (hAEC-CF, Epithelix, Geneva, Switzerland; McGill University, Montreal, Qc; Asterand, Detroit, Mich.; University of North Carolina, Chapel Hill, N.C.) are plated on type IV collagen-coated Transwell® supports (Costar).
For electrophysiological recording of the “chronic” experiments, the human airway epithelia are mounted in the TECC heating plate for electrophysiological measurement and kept at 37° C. The epithelia are bathed in a NaCl-Ringer solution (120 mM NaCl, 25 mM NaHCO3, 1.2 mM CaCl2, 1.2 mM MgCl2, 0.8 mM KH2PO4, 0.8 mM K2HPO4, pH 7.4, 5 mM glucose) on both the basolateral and apical sides. […]

Experiment [2] concerns the target T2, ΔF508-CFTR (Homo sapiens, UniProt P13569, DEL508-508).
T2 construct: host or cells: CFBE41o-, doxycycline-inducible
As to the kind of experiment: CFTR cell surface levels using HRP-tagged ΔF508-CFTR expressing CFBE cells, in the presence of a co-corrector. The settings on record: in the presence of 3 μM co-corrector. The text has this: (§1) Measuring CFTR Cell Surface Levels Using HRP-Tagged ΔF508-CFTR Expressing CFBE Cells
(§2) The HRP-tagged ΔF508-CFTR cell assay measures the expression of CFTR-ΔF508 at the plasma membrane. CFTR-ΔF508 has a folding defect leading to absence of protein at the plasma membrane. This assay is used to evaluate the capacity of compounds to increase the expression of CFTR-ΔF508 at the plasma membrane. The CFTR-ΔF508 is tagged with HRP (horse radish peroxidase enzyme) within the ECL4 (Extracellular loop 4) of CFTR (Phuan, P.-W. et al. Synergy-based small-molecule screen using a human lung epithelial cell line yields ΔF508-CFTR correctors that augment VX-809 maximal efficacy. Mol. Pharmacol. 86, 42-51 (2014)). When HRP-tagged ΔF508-CFTR is present at the plasma membrane, the HRP enzyme activity can be measured. The amount of CFTR-ΔF508 that can be rescued to the plasma membrane is correlated with the amount of functional enzyme that can be measured.
(§3) There are several ways to measure the capacity of compounds to rescue CFTR-ΔF508 to the plasma membrane; either compounds are evaluated on their own and the impact on plasma membrane levels is measured or compounds are evaluated in combination with a co-corrector, i.e. a compound that rescues CFTR-ΔF508 to the plasma membrane but rescue can be enhanced by addition of compounds due to a complementary mode of action.
Activity of Compounds in Combination with Co-Corrector:
For this purpose doxycycline-inducible ΔF508-CFTR-HRP expressing CFBE4lo− cells (obtained from Gergely Lukacs, McGill University) were maintained in MEM (Minimum Essential Medium, Gibco; 31095) supplemented with 10% fetal bovine serum (Hyclone; SV30160.03) under puromycin (3 μg/mL) and G418 selection (0.2 mg/mL). For compound testing, cells were seeded at 4000 cells/well in white 384-well plates (Greiner; 781080) in 50 μL of medium containing 0.5 μg/mL doxycycline and incubated for 68 hours at 37° C., 5% CO2. On day four, 10 μL of test compounds diluted in PBS (phosphate buffered saline) were added to the plates at a final DMSO concentration of 0.1%. In order to measure compound synergy with a co-corrector, 3 μM co-corrector (3-[(2R,4R)-4-({[1-(2,2-difluoro-1,3-benzodioxol-5-yl)cyclopropyl]carbonyl}amino)-7-methoxy-3,4-dihydro-2H-chromen-2-yl]benzoic acid) was added along with test compounds. All compound plates contained negative controls (DMSO) and positive controls (3 μM co-corrector). Cell plates were incubated at 33° C., 5% CO2 for 20 hours. On day five, the cells were washed five times with phosphate-buffered saline, and HRP activity was assayed by the addition of 50 μL/well of HRP substrate (SuperSignal™ West Pico Chemiluminescent Substrate, Thermo Scientific; 34080). After incubation for 15 minutes in the dark, the chemiluminescence was measured using a plate reader (EnVision®, Perkin Elmer). Raw data were normalized to percentage activity values using the equation: 100×(Sample−Negative control)/(Positive control−Negative Control).

The target in experiment [3] is T2, ΔF508-CFTR. As to the kind of experiment: CFTR cell surface levels using HRP-tagged ΔF508-CFTR expressing CFBE cells, intrinsic corrector capacity. The conditions noted are these: HRP-tagged ΔF508-CFTR expressing CFBE41o- cells; compound alone (intrinsic corrector capacity); 20 hours at 33° C.
From the text: as §1, §2, §3
Activity of Compounds for their Intrinsic Corrector Capacity:
For this purpose doxycycline-inducible ΔF508-CFTR-HRP expressing CFBE4lo− cells (obtained from Gergely Lukacs, McGill University) were maintained in MEM (Gibco; 31095) supplemented with 10% fetal bovine serum (Hyclone; SV30160.03) under puromycin (3 μg/mL) and G418 selection (0.2 mg/mL). For compound testing, cells were seeded at 4000 cells/well in white 384-well plates (Greiner; 781080) in 50 μL medium containing 0.5 μg/mL doxycycline and incubated for 68 hours at 37° C., 5% CO2. On day four, […] compounds diluted in PBS were added to the plates at a final DMSO concentration of 0.1%. All compound plates contained negative controls (DMSO) and positive controls ([…] corrector, 3-[(2R,4R)-4-({[1-(2,2-difluoro-1,3-benzodioxol-5-yl)cyclopropyl]carbonyl}amino)-7-methoxy-3,4-dihydro-2H-chromen-2-yl]benzoic acid). Cell plates were incubated at 33° C., 5% CO2 for 20 hours. On day five, the cells were washed five times with phosphate-buffered saline, and HRP activity was assayed by the addition of 50 μL/well of HRP substrate (SuperSignal™ West Pico Chemiluminescent Substrate, Thermo Scientific; 34080). After incubation for 15 minutes in the dark, chemiluminescence was measured using a plate reader (EnVision®, Perkin Elmer). Raw data were normalized to percentage activity values using the equation: 100×(Sample−Negative control)/(Positive control−Negative Control).

pEC50: −log10 of the molar value. Where two headings read alike, the source gives them in different places.

With `O=C(NS(=O)(=O)N1CCOCC1)c1cc(N2CCC(N3CCOCC3)CC2)c2c(C3CCC3)nn(-c3ccccc3)c2n1` [Compound 383, 3-cyclobutyl-N-(morpholine-4-sulfonyl)-4-[4-(morpholin-4-yl)piperidin-1-yl]-1-phenyl-1H-pyrazolo[3,4-b]pyridine-6-carboxamide], in experiment [1] (chronic TECC, AUC = full area under the curve upon forskolin stimulation, read-out: EC50 (nM) (AUC**)), the EC50 came to 2 nM. The pEC50 in experiment [2] was 7.03; in experiment [3] it was 6.82.

As for `CCS(=O)(=O)NC(=O)c1cc(N2CCC(N3CCOCC3)CC2)c2c(C3CCC3)nn(-c3ccccc3)c2n1` [Compound 437, 3-cyclobutyl-N-(ethanesulfonyl)-4-[4-(morpholin-4-yl)piperidin-1-yl]-1-phenyl-1H-pyrazolo[3,4-b]pyridine-6-carboxamide], the figures for the pEC50 in experiment [2] and in experiment [3] were 6.81 and 6.59, respectively.

Take `COCCS(=O)(=O)NC(=O)c1cc(N2CCC(COC)CC2)c2c(C3CCC3)nn(-c3ccccc3)c2n1` [Compound 256, 3-cyclobutyl-N-(2-methoxyethanesulfonyl)-4-[4-(methoxymethyl)piperidin-1-yl]-1-phenyl-1H-pyrazolo[3,4-b]pyridine-6-carboxamide]: the negative logarithm of the EC50 (pEC50) is 6.83 in experiment [2] and 6.66 in experiment [3].

As to `CS(=O)(=O)NC(=O)c1cc(-c2ccc(N3CCC(C#N)CC3)nc2)c2c(C3CCC3)nn(-c3ccccc3)c2n1` [Compound 71, 4-[6-(4-cyanopiperidin-1-yl)pyridin-3-yl]-3-cyclobutyl-N-(methanesulfonyl)-1-phenyl-1H-pyrazolo[3,4-b]pyridine-6-carboxamide], the pEC50 in experiment [1] is 7.71.

For the molecule `CCS(=O)(=O)N(C)C(=O)c1cc(N2CCC(N3CCOCC3)CC2)c2c(C3CCC3)nn(-c3ccccc3)c2n1` [Compound 658, 3-cyclobutyl-N-(ethanesulfonyl)-N-methyl-4-[4-(morpholin-4-yl)piperidin-1-yl]-1-phenyl-1H-pyrazolo[3,4-b]pyridine-6-carboxamide], the negative-log EC50 (pEC50) in experiment [2] was 6.83; in experiment [3], 6.60.

Take `CN(C(=O)c1cc(N2CCC(N3CCOCC3)CC2)c2c(C3CCC3)nn(-c3ccccc3)c2n1)S(C)(=O)=O` [Compound 656, 3-cyclobutyl-N-(methanesulfonyl)-N-methyl-4-[4-(morpholin-4-yl)piperidin-1-yl]-1-phenyl-1H-pyrazolo[3,4-b]pyridine-6-carboxamide]: the negative-log EC50 (pEC50) in experiment [2] was 7.15; in experiment [3], 7.00.
